This is a selection; strong and weak results do not stand in their true shares. Active and inactive are the calls of the source.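 The calls were made as follows: active = viability at or below 10% of carrier control in both of two separate runs; inconclusive = viability at or below 10% in only one of the two runs; inactive = the rest.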
Test: SK-BR-3 cell growth inhibitors, pilot screen, 24 h, human (AID 572);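 also: compound exposure lasted between 18 and 24 h rather than exactly 24 h; 100% = carrier-treated control wells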
Conditions: SK-BR-3 viability, CellTiter-Glo luminescence, at 10 µM, hits give low values

Row | Structure (SMILES) | viability
1 | O=P(Nc1nccs1)(c1ccccc1)c1ccccc1 | inactive: 102%
2 | CCOP1(=S)c2c(C)nn(CCC#N)c2N=C(c2ccccc2F)N1C (stereo not drawn) | inactive: 114%
3 | O=C(COc1ccccc1)OC1CN2CCC1CC2 (stereo not drawn) | inactive: 94.5%
